Measurements reported in PubChem BioAssay AID624167 (Sanford-Burnham Center for Chemical Genomics, 2012).
Active and inactive are the calls of the source.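 Rule for the calls: active = mean IC50 for reducing PEG3 promoter reporter signal at or below a set limit, with IC50 above the limit in both counter screens; inactive = the rest, including counter screen hits.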

Sequences of proteins named here, by UniProt entry; tags and fusion partners are left off.
UniProt Q6IN02, whole entry, looked up: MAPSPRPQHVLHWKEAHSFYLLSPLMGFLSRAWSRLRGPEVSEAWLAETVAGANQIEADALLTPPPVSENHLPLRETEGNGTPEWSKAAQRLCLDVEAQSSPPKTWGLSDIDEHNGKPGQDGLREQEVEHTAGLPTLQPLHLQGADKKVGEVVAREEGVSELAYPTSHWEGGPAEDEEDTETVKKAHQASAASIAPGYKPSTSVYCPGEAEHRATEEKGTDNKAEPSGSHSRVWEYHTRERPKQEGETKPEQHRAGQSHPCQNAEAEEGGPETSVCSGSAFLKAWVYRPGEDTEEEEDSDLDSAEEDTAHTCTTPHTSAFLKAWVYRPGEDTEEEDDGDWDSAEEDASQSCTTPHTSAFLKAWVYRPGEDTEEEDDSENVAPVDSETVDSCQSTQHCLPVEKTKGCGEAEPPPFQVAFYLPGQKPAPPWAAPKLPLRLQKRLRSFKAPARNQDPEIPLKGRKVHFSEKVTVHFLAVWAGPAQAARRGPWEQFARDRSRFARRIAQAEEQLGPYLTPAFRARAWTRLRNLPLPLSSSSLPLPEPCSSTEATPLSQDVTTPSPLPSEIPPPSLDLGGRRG

Tests used:
PEG-3 [1] = target: PEG-3 (UniProt Q6IN02); assay: inhibition of PEG-3 promoter-driven reporter – cell-based, HeLa, luciferase, CREF/GAPDH counter-screen panel, dose response (AID 624167); details: HeLa PEG-Prom luciferase reporter, overnight, CREF/GAPDH counter-screens, mean of runs
PEG-3 [2] = assay: as above; details: HeLa PEG-Prom luciferase reporter, overnight, CREF/GAPDH counter-screens
[3] = run 1, dose range 1, individual replicate IC50 per panel
[4] = run 2, dose range 1, individual replicate IC50 per panel

Compound	IC50 (PEG-3 [1])	IC50 (PEG-3 [2]; [3]) [µM]	IC50 (PEG-3 [2]; [4]) [µM]
O=c1[nH]c2ccccc2n1C1CCN(C(c2cccc3ccccc23)c2nnnn2C2CCCC2)CC1 (stereo unspecified)	inactive: > 100 µM	> 100	> 100
CCCCn1nnnc1C(c1cccs1)N1CCC(n2c(=O)[nH]c3ccccc32)CC1 (stereo unspecified)	inactive	27.3	94.5
